This is a selection; strong and weak results do not stand in their true shares. Results filed as inconclusive are left out. The source made the active and inactive calls. Calls come from the whole dose curve; as a rule, active = well fitted inhibition curve with a large enough effect; inconclusive = small, poorly fitted or top-dose-only effect; inactive = no such curve, though single readings can be large or run the other way.
molecular target: Ferritin light chain (Equus caballus) (UniProt P02791); assay: qHTS Assay for Identification of Novel General Anesthetics; conditions: apoferritin/1-aminoanthracene competitive binding, fluorescence; at 77.5 µM (top of the series); note: nearly all actives have a fitted effect of over 20% in size
% is set by controls: 0 for no effect and ±100 for the full control effect.

Sequences of proteins named here, by UniProt entry; tags and fusion partners are left off. Residues count along the entry.
UniProt P02791, 2-175 limits assumed: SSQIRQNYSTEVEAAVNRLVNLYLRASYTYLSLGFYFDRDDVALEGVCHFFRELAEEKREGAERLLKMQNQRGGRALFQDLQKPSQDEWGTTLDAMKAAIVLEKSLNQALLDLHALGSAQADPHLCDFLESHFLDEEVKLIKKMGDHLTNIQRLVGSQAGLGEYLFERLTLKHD

Row | Structure (SMILES) | activity change, negative = displacement
1 | COc1ccccc1OP(C)(=O)Nc1ccc(C)cc1C (configuration not stated) | inactive: -11.5%
2 | CP(=O)(Oc1ccccc1)OC(c1ccccc1)C(F)(F)F (configuration not stated) | inactive: -14.5%

— PubChem BioAssay AID485281 (National Center for Advancing Translational Sciences (NCATS), 2010)
